# Membrane permeability of cyclic peptides

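The data file gives no further conditions (lipid, pH, time, direction or concentration), and values from different papers need not be comparable. Other peptides of the study may be missing here. Entries at the database's floor value (log10 P of -10) are not listed.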

PAMPA is the parallel artificial membrane permeability assay, which has no cells and reads passive diffusion.
Permeability is in 10^-6 cm/s, converted from the database's log10 values; higher is more permeable.

PAMPA (10^-6 cm/s),compound
0.6,CC(C)C[C@@H]1C(=O)N(Cc2ccccc2)CC(=O)N2CCC[C@H]2C(=O)N[C@H](CC(C)C)C(=O)N[C@@H](Cc2ccccc2)C(=O)N2CCC[C@@H]2C(=O)N(C)[C@H](C)C(=O)N1C
7.2,CC(C)C[C@@H]1C(=O)N(C)[C@H](CC(C)C)C(=O)N2CCC[C@@H]2C(=O)N(C)[C@H](CC(C)C)C(=O)N[C@@H](Cc2ccccc2)C(=O)N2CCC[C@H]2C(=O)N(C)[C@H](C)C(=O)N1C
6,CC(C)C[C@@H]1C(=O)N[C@@H](Cc2ccccc2)CC(=O)N2CCC[C@H]2C(=O)N(C)[C@@H](CC(C)C)C(=O)N[C@@H](Cc2ccccc2)C(=O)N(C)[C@H](C)C(=O)N1C
9.3,CC(C)C[C@H]1C(=O)N[C@@H](Cc2ccccc2)C(=O)N2CCC[C@H]2C(=O)N(C)[C@@H](C)C(=O)N(C)[C@@H](CC(C)C)C(=O)N(Cc2ccccc2)CC(=O)N2CCC[C@@H]2C(=O)N1C
3.2,CC(C)C[C@@H]1NC(=O)[C@H]2CCCN2C(=O)C[C@H](Cc2ccccc2)NC(=O)[C@H](CC(C)C)N(C)C(=O)C[C@H](Cc2ccccc2)NC(=O)[C@@H]2CCCN2C(=O)[C@H](Cc2ccccc2)NC1=O
2.5,CC(C)C[C@@H]1NC(=O)C[C@H](Cc2ccccc2)NC(=O)[C@H](Cc2ccccc2)NC(=O)[C@H](CC(C)C)N(C)C(=O)[C@@H]2CCCN2C(=O)C[C@H](Cc2ccccc2)NC1=O
8.5,CC(C)C[C@@H]1C(=O)N[C@@H](Cc2ccccc2)C(=O)N2CCC[C@H]2C(=O)N(C)[C@H](C)C(=O)N(C)[C@@H](CC(C)C)C(=O)N[C@H](CC(C)C)C(=O)N2CCC[C@@H]2C(=O)N1C
1.7,CC(C)C[C@@H]1NC(=O)[C@@H]2CCCN2C(=O)C[C@H](Cc2ccccc2)NC(=O)[C@@H](CC(C)C)NC(=O)C[C@H](Cc2ccccc2)NC(=O)[C@@H]2CCCN2C(=O)[C@H](Cc2ccccc2)NC1=O
1.5,CCCN1CC(=O)N[C@@H](CC(C)C)C(=O)N(C)[C@H](CC(C)C)C(=O)N2CCC[C@H]2C(=O)N(Cc2ccccc2)CC(=O)N[C@@H](Cc2ccccc2)C(=O)N2CCC[C@H]2C1=O
6.8,CCCN1CC(=O)N[C@H](CC(C)C)C(=O)N[C@@H](CC(C)C)C(=O)N2CCC[C@@H]2C(=O)N(C)[C@H](CC(C)C)C(=O)N[C@@H](Cc2ccccc2)C(=O)N2CCC[C@@H]2C1=O
0.23,CC(C)C[C@H]1NC(=O)[C@@H](C)NC(=O)[C@H](Cc2ccccc2)NC(=O)CN(Cc2ccccc2)C(=O)[C@@H]2CCCN2C(=O)[C@@H](CC(C)C)NC1=O
0.39,CC(C)C[C@@H]1NC(=O)[C@@H](C)N(C)C(=O)[C@H](Cc2ccccc2)NC(=O)[C@@H](CC(C)C)NC(=O)[C@H]2CCCN2C(=O)[C@H](CC(C)C)NC1=O
0.54,CC(C)C[C@@H]1NC(=O)[C@H]2CCCN2C(=O)CN(Cc2ccccc2)C(=O)[C@H](CC(C)C)NC(=O)C[C@H](Cc2ccccc2)NC(=O)[C@H]2CCCN2C(=O)[C@H](Cc2ccccc2)NC1=O
0.5,CC(C)C[C@@H]1NC(=O)[C@@H]2CCCN2C(=O)[C@H](CC(C)C)N(C)C(=O)[C@H](CC(C)C)NC(=O)C[C@H](Cc2ccccc2)NC(=O)[C@@H]2CCCN2C(=O)[C@H](Cc2ccccc2)NC1=O

Excerpt, the opening 2 entries:

compound,PAMPA (10^-6 cm/s)
CC(C)C[C@@H]1C(=O)N(Cc2ccccc2)CC(=O)N2CCC[C@H]2C(=O)N[C@H](CC(C)C)C(=O)N[C@@H](Cc2ccccc2)C(=O)N2CCC[C@@H]2C(=O)N(C)[C@H](C)C(=O)N1C,0.6
CC(C)C[C@@H]1C(=O)N(C)[C@H](CC(C)C)C(=O)N2CCC[C@@H]2C(=O)N(C)[C@H](CC(C)C)C(=O)N[C@@H](Cc2ccccc2)C(=O)N2CCC[C@H]2C(=O)N(C)[C@H](C)C(=O)N1C,7.2

Values of Townsend et al. 2020, doi:10.26434/chemrxiv.13335941.v1, as listed in CycPeptMPDB.